Laboratory results as given in ChEMBL document CHEMBL1124616, “Hybrid cholecystokinin (CCK) antagonists: new implications in the design and modification of CCK antagonists” (J Med Chem, 1989).
pIC50: −log10 of the molar value.

By UniProt entry, the sequences of proteins in these tests, tags left out.
UniProt Q63931, whole entry: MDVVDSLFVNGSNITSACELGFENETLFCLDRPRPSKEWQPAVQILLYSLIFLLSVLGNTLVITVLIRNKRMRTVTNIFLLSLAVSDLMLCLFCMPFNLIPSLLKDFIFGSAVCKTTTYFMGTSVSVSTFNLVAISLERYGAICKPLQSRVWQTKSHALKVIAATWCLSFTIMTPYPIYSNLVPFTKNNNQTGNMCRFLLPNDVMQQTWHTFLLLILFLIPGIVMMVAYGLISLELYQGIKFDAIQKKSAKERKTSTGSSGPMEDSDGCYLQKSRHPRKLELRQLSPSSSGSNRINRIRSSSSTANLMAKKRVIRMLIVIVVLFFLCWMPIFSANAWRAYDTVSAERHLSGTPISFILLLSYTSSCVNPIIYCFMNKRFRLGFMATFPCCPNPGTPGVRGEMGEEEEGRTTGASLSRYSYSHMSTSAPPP

Target: Cholecystokinin receptor type A (Cavia porcellus, UniProt Q63931)
Test: Compound was evaluated for the binding affinity against CCK A receptor in pancreatic acinar cell

With `CCCCCN(CCCCC)C(=O)[C@@H](CCC(=O)O)NC(=O)c1cc2ccccc2[nH]1` as the compound, how does the pIC50 read?
Its pIC50 is 7.72.
